Patent US20110039873A1, “SUBSTITUTED PYRAZOLO[1,5-a] PYRIDINE COMPOUNDS HAVING MULTI-TARGET ACTIVITY” (priority 2009, published 2011)

Amino acid sequences for entries named in this document (tags omitted). Residues count along the entry.
UniProt Q9Y233, 1-779 isoform Q9Y233-1: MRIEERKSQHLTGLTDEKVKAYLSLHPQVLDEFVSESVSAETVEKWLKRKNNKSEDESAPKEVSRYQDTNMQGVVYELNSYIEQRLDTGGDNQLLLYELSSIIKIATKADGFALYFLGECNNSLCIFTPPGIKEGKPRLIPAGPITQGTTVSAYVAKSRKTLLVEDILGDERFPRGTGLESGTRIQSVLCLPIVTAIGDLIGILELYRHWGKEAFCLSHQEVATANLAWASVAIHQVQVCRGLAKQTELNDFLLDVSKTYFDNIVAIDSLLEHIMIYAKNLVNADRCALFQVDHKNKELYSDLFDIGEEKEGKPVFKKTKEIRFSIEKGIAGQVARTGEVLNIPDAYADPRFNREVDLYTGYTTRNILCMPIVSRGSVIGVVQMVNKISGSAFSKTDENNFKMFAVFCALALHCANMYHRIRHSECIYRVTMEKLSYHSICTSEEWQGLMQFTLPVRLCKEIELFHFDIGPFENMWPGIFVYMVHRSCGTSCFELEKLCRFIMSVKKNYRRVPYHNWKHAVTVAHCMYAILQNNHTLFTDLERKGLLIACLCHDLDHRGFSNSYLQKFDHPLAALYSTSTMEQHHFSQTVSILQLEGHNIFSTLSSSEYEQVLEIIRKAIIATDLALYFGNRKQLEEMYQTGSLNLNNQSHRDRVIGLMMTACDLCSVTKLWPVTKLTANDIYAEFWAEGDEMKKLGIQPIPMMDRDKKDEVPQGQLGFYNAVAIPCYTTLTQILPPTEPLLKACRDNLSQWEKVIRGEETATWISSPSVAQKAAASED

Target: T1, recombinant human phosphodiesterase 10A1 enzyme (Homo sapiens, UniProt Q9Y233)
T1 construct: purchased BPS Biosciences; host or cells: Baculovirus infected Sf9 cells
Assay: PDE10 inhibition assay (PDELight)
Type: biochemical
Protocol: In a 96-well plate, recombinant human phosphodiesterase 10A1 enzyme (10 U/well) expressed in Baculovirus infected Sf9 cells (BPS Biosciences) was combined with 1 uM cAMP substrate (Sigma). […] Using a PDELight® kit (Cambrex), the amount of AMP produced in the reaction from the hydrolysis of cAMP was quantified using PDELight AMP Detection Reagent which converts the AMP directly to ATP. The assay uses luciferase, which catalyses the formation of light from the newly formed ATP and luciferin. The luminescence was read on a Victor Light 1420 luminometer. IC50 calculations were plotted using a nonlinear regression curve fit.

Structure (SMILES): COc1ccc(Cc2nccc3cc(OC)c(OC)cc23)cc1OC [Papaverine, reference compound]
- IC50: 300 to 3700 nM
